What was measured:
[1] = MAD study, single-dose period: plasma PK, fed; design: species or system human (healthy men); conditions: in vivo
TNFα = assay: Ex vivo whole-blood LPS stimulation, TNFα release; format: cell-based, human
IL-1β = assay: Ex vivo whole-blood LPS stimulation, IL-1β release; format: cell-based, human; conditions: 24-h LPS 100 ng/mL
IFN-γ = assay: Ex vivo whole-blood LPS stimulation, IFN-γ release; format: cell-based, human; conditions: 24-h LPS 100 ng/mL
IL-6 = assay: Ex vivo whole-blood LPS stimulation, IL-6 release; format: cell-based, human; conditions: 24-h LPS 100 ng/mL
IL-6 release = assay: In vitro human whole-blood assay, IL-6 release after resiquimod (R848) stimulation; conditions: read-out: IC50 for IL-6 release inhibition; mean and 95% CI
[2] = MAD study, multiple-dose period: TEAEs, all events; format: in vivo, human (healthy men); conditions: 120 mg BID
human serum albumin = human serum albumin (Homo sapiens, UniProt P02768)
[3] = system: alpha-acid glycoprotein (AGP)
rat splenic cells = conditions: ref Bothe et al., 2024; cited from earlier work

The chains behind the UniProt entries cited, without tags or fusion partners. Residues count along the entry.
UniProt P02768, 25-609 limits assumed: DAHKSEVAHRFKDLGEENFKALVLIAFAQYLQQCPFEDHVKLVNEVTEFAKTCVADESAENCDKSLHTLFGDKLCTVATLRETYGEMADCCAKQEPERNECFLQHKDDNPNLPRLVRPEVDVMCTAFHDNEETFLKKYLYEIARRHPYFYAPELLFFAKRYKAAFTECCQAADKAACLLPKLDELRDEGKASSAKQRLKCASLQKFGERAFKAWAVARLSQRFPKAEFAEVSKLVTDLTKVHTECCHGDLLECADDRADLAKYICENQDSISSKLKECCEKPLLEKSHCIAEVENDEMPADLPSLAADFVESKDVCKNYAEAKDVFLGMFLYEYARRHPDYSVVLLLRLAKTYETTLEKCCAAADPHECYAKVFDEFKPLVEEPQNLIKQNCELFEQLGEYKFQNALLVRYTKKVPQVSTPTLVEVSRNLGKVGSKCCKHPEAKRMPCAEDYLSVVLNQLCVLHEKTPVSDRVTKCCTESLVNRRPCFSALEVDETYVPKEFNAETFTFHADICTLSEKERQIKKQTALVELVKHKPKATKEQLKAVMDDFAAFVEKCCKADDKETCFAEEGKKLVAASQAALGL

CC(C)(O)c1cc2nn(CCS(C)(=O)=O)cc2cc1NC(=O)c1cccc(C(F)(F)F)n1
AUC [1]: 6.74 (27.0) mg·h/L | Cmax [1]: 0.251 (22.8) mg/L | TNFα change from baseline 6 h post-dose (TNFα; 30 mg, 6-h LPS 0.1 ng/mL): -1155 pg/mL | TNFα change from baseline 6 h post-dose (TNFα; 30 mg, 24-h LPS 100 ng/mL): 48 pg/mL | TNFα change from baseline 6 h post-dose (TNFα; 120 mg, 6-h LPS 0.1 ng/mL): -418 pg/mL | TNFα change from baseline 6 h post-dose (TNFα; 120 mg, 24-h LPS 100 ng/mL): -291 pg/mL | TNFα change from baseline 6 h post-dose (TNFα; 480 mg split fed, 6-h LPS 0.1 ng/mL): -949 pg/mL | TNFα change from baseline 6 h post-dose (TNFα; 480 mg split fed, 24-h LPS 100 ng/mL): -674 pg/mL | TNFα change from baseline 6 h post-dose (TNFα; 480 mg, 6-h LPS 0.1 ng/mL): -238 pg/mL | TNFα change from baseline 6 h post-dose (TNFα; 480 mg, 24-h LPS 100 ng/mL): -25 pg/mL | return of TNFα levels (TNFα; 200-mg BID group): ≤ 72 h | time for TNFα release to return to baseline after end of treatment (TNFα; MAD study): ≤ 3 days | IL-1β change from baseline 6 h post-dose (IL-1β; 30 mg): -116 pg/mL | IL-1β change from baseline 6 h post-dose (IL-1β; 120 mg): -513 pg/mL | IL-1β change from baseline 6 h post-dose (IL-1β; 480 mg split fed): -698 pg/mL | IL-1β change from baseline 6 h post-dose (IL-1β; 480 mg): -597 pg/mL | IFN-γ change from baseline 6 h post-dose (IFN-γ; 30 mg): -2037 pg/mL | IFN-γ change from baseline 6 h post-dose (IFN-γ; 120 mg): -4628 pg/mL | IFN-γ change from baseline 6 h post-dose (IFN-γ; 480 mg split fed): -13990 pg/mL | IFN-γ change from baseline 6 h post-dose (IFN-γ; 480 mg): -2569 pg/mL | IL-6 change from baseline 6 h post-dose (IL-6; 30 mg): -1357 pg/mL | IL-6 change from baseline 6 h post-dose (IL-6; 120 mg): -3025 pg/mL | IL-6 change from baseline 6 h post-dose (IL-6; 480 mg split fed): -2201 pg/mL | IL-6 change from baseline 6 h post-dose (IL-6; 480 mg): -1285 pg/mL | IC50 (IL-6 release): 86 nM | Infections and infestations [2]: 2 (25.0) n (%) | Kd (human serum albumin): 178000 nM | Kd [3]: 400 nM | inhibition of TNFα secretion (rat splenic cells): strongly inhibits
